In article PMC5360572:

B1: full-length human PD-1, wild type, on HEK293 cells [human] / human PD-L2 Ig fusion protein [human] (parent)
chain 1: LFTVTVPKELYIIEHGSNVTLECNFDTGSHVNLGAITASLQKVENDTSPHRERATLLEEQLPLGKASFHIPQVQVRDEGQYQCIIIYGVAWDYKYLTLKVKASYRKINTHILKVPETDEVELTCQATGYPLAEVSWPNVSVPANTSHSRTPEGLYQVTSVLRLKPPPGRNFSCVFWNTHVRELTLASIDLQSQMEPRTHPT
chain 2: LDSPDRPWNPPTFSPALLVVTEGDNATFTCSFSNTSESFVLNWYRMSPSNQTDKLAAFPEDRSQPGQDCRFRVTQLPNGRDFHMSVVRARRNDSGTYLCGAISLAPKAQIKESLRAELRVTERRAEVPTAHPSPSPRPAGQFQTLVVGVVGGLLGSLVLLVWVLAVICSRAARGTIGARRTGQPLKEDPSAVPVFSVDYGELDFQWREKTPEPPVPCVPEQTEYATIVFPSGMGTSSPARRGSADGPRSAQPLRPEDGHCSWPL

Variants of: B1
Assay: flow cytometry on cells
Details: with human PD-L2 Ig fusion protein [human], read off a plot
[1] = PD-L2 Ig about 6 nM (x position estimated)
[2] = PD-L2 Ig about 60 nM (x position estimated)

Variant	response [1]	response [2]	response (PD-L2 Ig about 330 nM (x position estimated))
chain 2 LDSPDRPWNPPTFSPALLVVTEGDNATFTCSFSNTSESFVLNWYRMSPSNQTDKLAAFPEDRSQPGQDCRFRVTQLPNGRDFHMSVVRARRNDSGTYLCGAISAAPKAQIKESLRAELRVTERRAEVPTAHPSPSPRPAGQFQTLVVGVVGGLLGSLVLLVWVLAVICSRAARGTIGARRTGQPLKEDPSAVPVFSVDYGELDFQWREKTPEPPVPCVPEQTEYATIVFPSGMGTSSPARRGSADGPRSAQPLRPEDGHCSWPL [chain 2 L104A]	55 MFI	130 MFI	130 MFI
chain 2 LDSPDRPWNPPTFSPALLVVTEGDNATFTCSFSNTSESFVLNWYRMSPSNQTDKLAAFPEDRSQPGQDCRFRVTQLPNGRDFHMSVVRARRNDSGTYLCGAISRAPKAQIKESLRAELRVTERRAEVPTAHPSPSPRPAGQFQTLVVGVVGGLLGSLVLLVWVLAVICSRAARGTIGARRTGQPLKEDPSAVPVFSVDYGELDFQWREKTPEPPVPCVPEQTEYATIVFPSGMGTSSPARRGSADGPRSAQPLRPEDGHCSWPL [chain 2 L104R]	47 MFI	87 MFI	
